Experimental findings from ChEMBL document CHEMBL4732187, “Tetrahydroindazole inhibitors of CDK2/cyclin complexes” (Eur J Med Chem, 2021) are described below.

SMILES strings stand for the structures.

Data set [1] is described as follows: Apparent permeability across basolateral to apical side in MDCK cells at 1 uM after 2 hrs by LC-MS/MS analysis. The class given is ADME, cell-based, Canis lupus familiaris. The settings on record: dog. In outline: (§1)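 MDCK monolayers were washed twice with pre-warmed HBSS (10 mM HEPES, pH 7.4) and equilibrated for 30 min at 37 °C. Compound at 1 μM in HBSS (0.5% DMSO final) was added to the apical or the basolateral donor side. After 2 h at 37 °C, donor and receiver samples were quenched in cold methanol with internal standards and analysed by LC-MS/MS. Runs were in duplicate; 100 μM Lucifer Yellow checked monolayer integrity.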

Data set [2] in a line: Apparent permeability across apical to basolateral side in MDCK cells at 1 uM after 2 hrs by LC-MS/MS analysis. The settings on record: dog. The class given is ADME, cell-based, Canis lupus familiaris. The method in brief:
as §1

With `Cc1ccc(NC(=O)c2ccc(CN3CCN(C)CC3)cc2)cc1Nc1nccc(-c2cccnc2)n1` [IMATINIB], in data set [1], the Papp B→A (as a rule, how fast a substance crosses the layer from the basolateral side) at 2 h, 1 µM is 6.5 ×10⁻⁶ cm/s. Besides, the apical-to-basolateral permeability (Papp A→B) (usually the apparent permeability from the apical to the basolateral side of a cell layer) at 2 h, 1 µM in data set [2] was 7.69 ×10⁻⁶ cm/s.
On to `C[C@H]1O[C@@H](O[C@H]2[C@@H](O)C[C@H](O[C@H]3[C@@H](O)C[C@H](O[C@H]4CC[C@@]5(C)[C@H](CC[C@@H]6[C@@H]5C[C@@H](O)[C@]5(C)[C@@H](C7=CC(=O)OC7)CC[C@]65O)C4)O[C@@H]3C)O[C@@H]2C)C[C@H](O)[C@@H]1O` [DIGOXIN], for which the Papp B→A at 2 h, 1 µM in data set [1] was found to be 5.41 ×10⁻⁶ cm/s. Also, the apparent permeability from apical to basolateral (Papp A→B) at 2 h, 1 µM in data set [2] is 1.08 ×10⁻⁶ cm/s.
